For 60 compounds, IC50 results are on record in patent US20240239774A1, “SOLUBLE ADENYLYL CYCLASE (SAC) INHIBITORS AND USES THEREOF” (Cornell University, priority 2021, published 2024).

Protein sequences, listed by entry. Tags and fused reporters are not part of them. Lines headed by an entry give the natural chain unless they say otherwise; changes in a name come on top.
UniProt Q96PN6: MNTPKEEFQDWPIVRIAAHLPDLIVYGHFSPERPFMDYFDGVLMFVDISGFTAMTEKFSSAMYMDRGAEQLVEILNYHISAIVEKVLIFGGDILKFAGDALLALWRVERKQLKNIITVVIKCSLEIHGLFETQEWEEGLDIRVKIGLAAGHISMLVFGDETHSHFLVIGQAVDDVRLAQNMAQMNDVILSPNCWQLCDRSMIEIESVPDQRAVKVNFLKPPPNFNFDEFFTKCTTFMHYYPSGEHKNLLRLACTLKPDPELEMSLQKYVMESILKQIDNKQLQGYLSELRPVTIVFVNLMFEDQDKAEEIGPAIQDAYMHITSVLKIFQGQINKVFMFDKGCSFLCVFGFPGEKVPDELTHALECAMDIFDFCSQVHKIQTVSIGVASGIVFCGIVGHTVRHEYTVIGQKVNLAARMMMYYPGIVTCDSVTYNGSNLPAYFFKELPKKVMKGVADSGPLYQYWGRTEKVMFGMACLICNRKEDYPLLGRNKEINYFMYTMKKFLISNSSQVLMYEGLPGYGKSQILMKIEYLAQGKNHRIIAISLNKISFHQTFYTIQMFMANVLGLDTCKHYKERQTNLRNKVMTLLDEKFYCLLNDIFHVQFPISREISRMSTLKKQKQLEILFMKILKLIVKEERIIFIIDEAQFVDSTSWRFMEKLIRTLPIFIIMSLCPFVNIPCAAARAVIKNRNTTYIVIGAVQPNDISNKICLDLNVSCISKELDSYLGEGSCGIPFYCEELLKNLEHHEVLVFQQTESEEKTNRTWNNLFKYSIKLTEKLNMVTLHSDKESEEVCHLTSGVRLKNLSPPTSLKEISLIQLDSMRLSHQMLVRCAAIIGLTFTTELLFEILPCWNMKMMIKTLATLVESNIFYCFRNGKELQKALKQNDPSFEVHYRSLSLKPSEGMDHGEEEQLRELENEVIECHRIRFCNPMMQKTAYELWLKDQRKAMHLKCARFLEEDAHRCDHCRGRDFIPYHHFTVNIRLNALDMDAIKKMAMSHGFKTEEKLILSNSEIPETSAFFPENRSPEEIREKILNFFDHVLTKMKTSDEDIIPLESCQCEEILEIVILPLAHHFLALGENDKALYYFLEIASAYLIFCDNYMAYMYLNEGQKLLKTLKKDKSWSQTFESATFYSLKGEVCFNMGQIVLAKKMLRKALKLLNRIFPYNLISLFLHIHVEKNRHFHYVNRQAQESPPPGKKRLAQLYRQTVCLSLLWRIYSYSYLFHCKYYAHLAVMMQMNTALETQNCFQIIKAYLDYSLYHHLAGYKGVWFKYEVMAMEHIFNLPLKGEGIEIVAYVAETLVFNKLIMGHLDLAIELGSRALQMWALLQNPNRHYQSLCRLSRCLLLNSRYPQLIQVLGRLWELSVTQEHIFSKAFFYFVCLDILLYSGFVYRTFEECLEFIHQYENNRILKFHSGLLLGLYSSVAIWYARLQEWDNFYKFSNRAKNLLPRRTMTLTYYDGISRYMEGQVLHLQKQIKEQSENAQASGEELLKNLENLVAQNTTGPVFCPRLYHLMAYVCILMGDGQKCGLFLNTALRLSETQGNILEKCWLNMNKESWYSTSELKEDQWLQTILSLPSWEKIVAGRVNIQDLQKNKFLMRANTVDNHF

In this experiment the target is purified recombinant human sAC protein (Homo sapiens, UniProt Q96PN6). As to the kind of experiment: biochemical. The class given is biochemical. The settings on record: 1 mM ATP, 2 mM CaCl2, 4 mM MgCl2, 40 mM NaHCO3. Here is the method:
Assays for sAC activity using purified protein were performed in 100 μl reactions containing 4 mM MgCl2, 2 mM CaCl2, 1 mM ATP, 40 mM NaHCO3, 50 mM Tris pH 7.5, and 3 mM DTT. Each reaction contained ˜1,000,000 counts of α-^32P labeled ATP.
All in vitro adenylyl cyclase activity assays were performed via the “two-column” method measuring the conversion of [α-^32P] ATP into [^32P] cAMP, as previously described [References 81, 82]. Briefly, human sACt protein [Reference 21] was incubated in buffer containing 50 mM Tris-HCl, pH 7.5, 4 mM MgCl2, 2 mM CaCl2, 1 mM ATP, 3 mM DTT, 40 mM NaHCO3 in the presence of the indicated concentrations of different sAC inhibitors or vehicle (DMSO).
Regarding `Cn1cc(Cc2ccccc2C(=O)OCc2ccc(CN)cc2)c(-c2cc(Cl)nc(N)n2)n1` [Example 55], the 50% inhibitory concentration (IC50) amounted to 11 nM. As to `Cn1nc(-c2cc(Cl)nc(N)n2)c(Cc2ccccc2)c1COC(=O)c1ccccc1` [Example 51], the IC50 came to 32 nM. `Cn1cc(Cc2cccc3c2OCCO3)c(-c2cc(Cl)nc(N)n2)n1` [Example 32]: the IC50 worked out at 15 nM. For the compound `Nc1nc(Cl)cc(-c2nn(C(F)F)cc2Cc2ccccc2OCCN2CCS(=O)(=O)CC(O)C2)n1` (stereo not drawn) [Example 180], the IC50 came to 467 nM.

For the compound `Cn1cc(Cc2ccccc2)c(-c2cc(Cl)nc(N)n2)n1` [Example 4], the IC50 is 550 nM. Next, `Cn1cc(Cc2ccccc2Oc2ccccc2)c(-c2cc(Cl)nc(N)n2)n1` [Example 9]: 100 nM; `Cn1cc(Cc2ccccc2OCC(O)CO)c(-c2cc(Cl)nc(N)n2)n1` (stereo not drawn) [Example 154]: 50 nM.

As for `Cn1nc(-c2cc(Cl)nc(N)n2)c(Cc2ccccc2)c1C(=O)Oc1ccc(CO)cc1` [Example 40], the IC50 is 1.5 nM. As for `Cn1cc(Cc2cccnc2OCCN2CCOCC2)c(-c2cc(Cl)nc(N)n2)n1` [Example 101], the IC50 was 150 nM. Turning to `Cn1cc(Cc2ccccc2OCCN2C[C@@H](O)[C@@H](O)C2)c(-c2cc(Cl)nc(N)n2)n1` [Example 152], the IC50 is 32 nM. Take `CN(C)CCCOC(=O)c1ccccc1Cc1cn(C)nc1-c1cc(Cl)nc(N)n1` [Example 54]: the IC50 turned out to be 93 nM. Regarding `Nc1nc(Cl)cc(-c2nn(C(F)F)cc2Cc2ccccc2OCCN2CCN(CCO)CC2=O)n1` [Example 170, 1-[2-[2-[[3-(2-amino-6-chloro-pyrimidin-4-yl)-1-(difluoromethyl)pyrazol-4-yl]methyl]phenoxy]ethyl]-4-(2-hydroxyethyl)piperazin-2-one], the IC50 was found to be 10 nM. Regarding `Cc1c(Cc2ncccn2)c(-c2cc(Cl)nc(N)n2)nn1C` [Example 74], the IC50 is approximately 1000 nM. In the case of `CCn1cc(Cc2cccs2)c(-c2cc(Cl)nc(N)n2)n1` [Example 5], the IC50 was 180 nM. Turning to `Cn1ccnc1COC(=O)c1c(Cc2ccccc2)c(-c2cc(Cl)nc(N)n2)nn1C` [Example 37], the IC50 turned out to be 6 nM. As to `CN(C)C1CCN(C(=O)COc2ccccc2Cc2cn(C(F)F)nc2-c2cc(Cl)nc(N)n2)CC1` [Example 85], the IC50 amounted to 27 nM. As to `Cn1cc(Cc2ccccc2OCCN2C[C@H]3C[C@@H]2CO3)c(-c2cc(Cl)nc(N)n2)n1` [Example 89], the IC50 was 6 nM. Take `Cn1nc(-c2cc(Cl)nc(N)n2)c(Cc2ccccc2)c1C(=O)OCC(O)CO` (stereo not drawn) [Example 67]: the IC50 turned out to be 20 nM. For the compound `COC(=O)c1ccccc1Cc1cn(C)nc1-c1cc(Cl)nc(N)n1` [Example 46], the IC50 was 22 nM.

For `Cn1cc(Cc2ccccc2OCCN2CCOCC2)c(-c2cc(C(F)(F)F)nc(N)n2)n1` [Example 176, 4-[1-methyl-4-[[2-(2-morpholinoethoxy)phenyl]methyl]pyrazol-3-yl]-6-(trifluoromethyl)pyrimidin-2-amine], the IC50 was determined as 1730 nM. Consider `Nc1nc(Cl)cc(-c2nn(C(F)F)cc2Cc2ccccc2OCCN2CCNC(=O)C2)n1` [Example 76, 4-[2-[2-[[3-(2-amino-6-chloro-pyrimidin-4-yl)-1-(difluoromethyl)pyrazol-4-yl]methyl]phenoxy]ethyl]piperazin-2-one], for which the IC50 came out at 2 nM. For the compound `Cn1cc(Cc2cccc(-c3ccccc3)c2)c(-c2cc(Cl)nc(N)n2)n1` [Example 8], the IC50 stood at 140 nM. Consider `CN1CCC(OC(=O)c2ccccc2Cc2cn(C)nc2-c2cc(Cl)nc(N)n2)CC1` [Example 57], for which the IC50 was 80 nM. Regarding `Nc1nc(Cl)cc(-c2nn(C(F)F)cc2Cc2ccccc2OCCN2CCS(=O)(=O)CC(O)C2)n1` (stereo not drawn) [Example 181], the IC50 is 30 nM. Next, `Cn1cc(Cc2ccccc2OCCN2CCOCC2)c(-c2cc(Cl)nc(N)n2)n1` [Example 69, 4-chloro-6-[1-methyl-4-[[2-(2-morpholinoethoxy)phenyl]methyl]pyrazol-3-yl]pyrimidin-2-amine]: 4.2 nM; `Cn1cc(Cc2cc(F)ccc2OCCN2CCNC(=O)C2)c(-c2cc(Cl)nc(N)n2)n1` [Example 171]: 25 nM; `Cc1c(Cc2ccccc2OCCN2CCOCC2)c(-c2cc(Cl)nc(N)n2)nn1C` [Example 177]: 32 nM. For the compound `Cn1cc(Cc2ccccc2C(=O)OCc2ccccc2)c(-c2cc(Cl)nc(N)n2)n1` [Example 48], the IC50 came to 10 nM. In the case of `CN1CCN(CCOCc2ccccc2Cc2cn(C(F)F)nc2-c2cc(Cl)nc(N)n2)CC1` [Example 100], the IC50 amounted to 150 nM. Next, `Nc1nc(Cl)cc(-c2nn(C(F)F)cc2CN2CCCc3ccccc32)n1` [Example 113]: 140 nM; `Cc1c(CC2CCC2)c(-c2cc(Cl)nc(N)n2)nn1C` [Example 43]: 100 nM; `Cc1c(Cn2cccn2)c(-c2cc(Cl)nc(N)n2)nn1C(F)F` [Example 147]: 586 nM. Regarding `Cn1cc(Cc2ccccc2OCCN2CC3(COC3)C2)c(-c2cc(Cl)nc(N)n2)n1` [Example 92], the IC50 came to 7.1 nM. In the case of `CN(C)CCCOC(=O)c1ccccc1Cc1cn(C(F)F)nc1-c1cc(Cl)nc(N)n1` [Example 112], the IC50 amounted to 74 nM. Then `CN1CCN(CCOC(=O)c2ccccc2Cc2cn(C(F)F)nc2-c2cc(Cl)nc(N)n2)CC1` [Example 75, 2-(4-methylpiperazin-1-yl)ethyl 2-[[3-(2-amino-6-chloro-pyrimidin-4-yl)-1-(difluoromethyl)pyrazol-4-yl]methyl]benzoate], with 23 nM; and `Cn1nc(-c2cc(Cl)nc(N)n2)c(Cc2ccccc2)c1C(=O)OCc1ccc(CN)cc1` [Example 42], with 3.5 nM; and `Nc1nc(Cl)cc(-c2nn(C(F)F)cc2Cc2ccccc2OCCN2CCCC2)n1` [Example 81], with 12 nM.

With `CN1CCN(CC(C)(O)COc2ccccc2Cc2cn(C(F)F)nc2-c2cc(Cl)nc(N)n2)CC1` (stereo not drawn) [Example 109], the IC50 is 10 nM. In the case of `Cn1cc(Cc2ccccc2C(=O)NCc2ccccc2)c(-c2cc(Cl)nc(N)n2)n1` [Example 49, 2-[[3-(2-amino-6-chloro-pyrimidin-4-yl)-1-methyl-pyrazol-4-yl]methyl]-N-benzyl-benzamide], the IC50 was 230 nM. For `Cn1cc(Cc2cccc(C(=O)OCc3nccn3C)c2)c(-c2cc(Cl)nc(N)n2)n1` [Example 59], the concentration for half-maximal inhibition (IC50) was determined as 135 nM.

For the compound `Cn1nc(-c2cc(Cl)nc(N)n2)c(Cc2ccccc2)c1COCC(O)CO` (stereo not drawn) [Example 172], the IC50 came to 350 nM. For the compound `Cn1cc(Cc2ccccc2SCCN2CCOCC2)c(-c2cc(Cl)nc(N)n2)n1` [Example 106], the IC50 is 60 nM. Next, `Cn1cc(Cc2cccc(OCCN3CCOCC3)c2)c(-c2cc(Cl)nc(N)n2)n1` [Example 117]: 337 nM. With `COC(=O)c1ccc(C2CC2)c(Cc2cn(C(F)F)nc2-c2cc(Cl)nc(N)n2)c1` [Example 103, methyl 3-[[3-(2-amino-6-chloro-pyrimidin-4-yl)-1-(difluoromethyl)pyrazol-4-yl]methyl]-4-cyclopropyl-benzoate], the IC50 is 2 nM. Next, `Nc1nc(Cl)cc(-c2n[nH]cc2Cc2ccccc2)n1` [Example 44, 4-(4-benzyl-1H-pyrazol-3-yl)-6-chloro-pyrimidin-2-amine]: approximately 5000 nM; `Nc1nc(Cl)cc(-c2nn(C(F)F)cc2Cc2ccccc2OCCN2CCOCC2=O)n1` [Example 108]: 5 nM.

`Nc1nc(Cl)cc(-c2nn(C(F)F)cc2Cc2ccccc2OC2CC2)n1` [Example 150]: the IC50 came out at 550 nM. Then `Cc1nc(-c2cc(Cl)nc(N)n2)n(Cc2ccccc2)n1` [Example 114], with 2500 nM. Take `CN(C)C1CCN(CCOc2ccccc2Cc2cn(C(F)F)nc2-c2cc(Cl)nc(N)n2)CC1` [Example 87]: the concentration for half-maximal inhibition (IC50) came out at 12 nM. Next, `Nc1nc(Cl)cc(-c2nn(C(F)F)cc2Cc2cc(C(=O)O)ccc2C2CC2)n1` [Example 104, 3-[[3-(2-amino-6-chloro-pyrimidin-4-yl)-1-(difluoromethyl)pyrazol-4-yl]methyl]-4-cyclopropyl-benzoic acid]: 10 nM; `Cn1nc(-c2cc(Cl)nc(N)n2)c(Cc2ccccc2)c1C(=O)OCCN1CCOCC1` [Example 38]: 4.7 nM.

Consider `CC1(O)CCN(CCOc2ccccc2Cc2cn(C(F)F)nc2-c2cc(Cl)nc(N)n2)CC1` [Example 77], for which the IC50 is 2.4 nM. Next, `Nc1nc(Cl)cc(-c2nn(C(F)F)cc2Cc2c(F)cccc2OCCN2CCNC(=O)C2)n1` [Example 84]: 4 nM. `COC(=O)c1cccc(Cc2cn(C)nc2-c2cc(Cl)nc(N)n2)c1` [Example 47]: the IC50 came to 70 nM. Take `Nc1nc(Cl)cc(-c2nn(C(F)F)cc2Cc2nc(C(=O)NCc3ccccc3)cs2)n1` [Example 94, 2-[[3-(2-amino-6-chloro-pyrimidin-4-yl)-1-(difluoromethyl)pyrazol-4-yl]methyl]-N-benzyl-thiazole-4-carboxamide]: the IC50 was found to be 250 nM. Take `Nc1nc(Cl)cc(-c2nn(C(F)F)cc2Cc2ccccc2OC2CCC2)n1` [Example 158]: the IC50 came out at 20 nM. In the case of `CN1CCC(Oc2ccccc2Cc2cn(C(F)F)nc2-c2cc(Cl)nc(N)n2)CC1` [Example 98], the IC50 was 20 nM. Consider `Cn1cc(Cc2sccc2-c2ccccc2)c(-c2cc(Cl)nc(N)n2)n1` [Example 6], for which the IC50 was 220 nM. For the compound `Cc1cccc(C)c1Cc1cn(C(F)F)nc1-c1cc(Cl)nc(N)n1` [Example 149], the IC50 was 250 nM. Next, `Nc1nc(Cl)cc(-c2nn(C(F)F)cc2Cc2ccccc2C2CC2)n1` [Example 159]: 50 nM.

For orientation: IC50 means the concentration that gives 50% inhibition.
